Yeast mating assay 1: variants of the scFv Ab-14

Antigen: PDVDLGDISGINAS, a 14-residue peptide of the SARS-CoV-2 spike HR2 region.

The variants keep the heavy chain, the linker and the frameworks of Ab-14 (scFv order VH, the linker GGGGSGGGGSGGGGS, VL).
VH: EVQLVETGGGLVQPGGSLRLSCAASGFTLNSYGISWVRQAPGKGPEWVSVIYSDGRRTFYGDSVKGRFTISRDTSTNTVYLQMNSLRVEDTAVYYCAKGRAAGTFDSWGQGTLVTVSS
VL: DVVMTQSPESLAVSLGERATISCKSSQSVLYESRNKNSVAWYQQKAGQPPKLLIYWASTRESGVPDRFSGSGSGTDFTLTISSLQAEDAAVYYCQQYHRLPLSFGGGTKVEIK

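The starting antibody came from a phage panning campaign against this peptide. Variants in AAYL50 differ from the parent at up to three CDR positions; double and triple changes were sampled at random. Affinity was read by AlphaSeq, a pooled yeast mating assay with surface-displayed partners. Pairs that bind mate more often; barcode pairs of the diploids are counted by sequencing. Each replicate has its own calibration line, from reference interactions of the BCL2 family. Mating was done three times.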

Positions count from residue 1 of the parent VL; S28V puts V in place of S. Values are log10 of the apparent Kd in nM; lower means stronger binding. Averages over replicates are reported, and they cover detected replicates only. Where no diploid with the target was found in that replicate, the entry reads "ND": below detection, most likely a poor binder, though not proof of it. In this assay the parent's reference entry averaged 0.65; its copy inside this library read 1.68. As a blank, each scFv also met three strains without target: over library AAYL50, 18% of these pairings were detected, typically at 4.19 and seldom below 2.99. For each scFv, signals with the empty controls are counted beside the result, with their mean in brackets.

changes | log10 Kd, replicates | log10 Kd (nM), mean | empty controls
S28V+Y31P+Q96G | 2.71 / 2.37 / 2.61 | 2.56 | 1/9 (4.50)
S25G+H98Y | 0.77 / 1.12 / 0.97 | 0.95 | 1/9 (4.44)
R34F+W56R+L102C | ND / ND / ND | ND | 1/9 (3.46)
N37S+R60S+E61F | ND / 4.15 / ND | 4.15 | 1/9 (3.72)
R60N+L100H | ND / 3.09 / ND | 3.09 | 0/9
A57E+R60A+S62R | ND / ND / ND | ND | 0/9
S28F+S38K+A40P | ND / ND / ND | ND | 0/9
R34K+A40D+Q95N | 4.42 / 4.05 / 6.12 | 4.87 | 7/9 (4.23)
S33P+A40V+L100W | ND / ND / ND | ND | 2/9 (2.77)
V29S+L30H+Y97K | ND / ND / 2.88 | 2.88 | 1/9 (3.19)
K24E+Q27F+V29N | 3.17 / 2.35 / 2.55 | 2.69 | 2/9 (3.42)
K24N+L30R+H98F | 1.13 / 1.35 / 1.39 | 1.29 | 1/9 (4.34)
W56R+S58Q | 1.26 / 1.45 / 1.23 | 1.32 | 5/9 (4.83)
E32D+E61S+Q95P | 1.61 / 1.73 / 1.69 | 1.68 | 3/9 (3.97)
V39Y+H98I+R99T | 2.28 / 4.53 / ND | 3.41 | 2/9 (3.14)
K24H+S28M+L100T | ND / 3.46 / ND | 3.46 | 0/9
R34C+V39P+R60E | ND / ND / ND | ND | 0/9
N37Q+A57L+S62C | ND / 3.47 / ND | 3.47 | 0/9
Q27G+S38F+S62H | 4.69 / 2.63 / ND | 3.66 | 0/9
E61P+S62G | 3.53 / 2.88 / 2.84 | 3.08 | 7/9 (4.39)
Q27R+N35R+S62H | ND / ND / ND | ND | 3/9 (4.33)
S25G+S62V | 1.71 / 1.78 / 2.01 | 1.84 | 4/9 (3.54)
S25C+S33D+S58F | 1.33 / 1.61 / 1.68 | 1.54 | 0/9
K36I+V39S+S103T | ND / ND / ND | ND | 0/9
S26N+S33T+V39M | ND / 1.33 / 1.92 | 1.62 | 0/9
S33R+N35Y+A57W | 4.36 / ND / ND | 4.36 | 2/9 (4.36)
L30R+A40I+H98A | ND / ND / ND | ND | 1/9 (3.49)
S28A+Q96V+H98A | ND / ND / ND | ND | 0/9
K36V+T59A+E61D | 1.92 / 1.92 / 2.09 | 1.98 | 2/9 (4.89)
Q27D+S38H+S58I | ND / ND / ND | ND | 0/9
V29Y+Y31E+T59C | 0.95 / 1.02 / 1.27 | 1.08 | 1/9 (3.99)
K36D+V39H+W56E | 2.60 / 2.86 / 3.13 | 2.86 | 1/9 (4.09)
K24R+W56D | -0.23 / 0.08 / -0.12 | -0.09 | 9/9 (4.60)
Q96F+H98M+L100F | ND / ND / ND | ND | 1/9 (3.15)
S25R+S33M+S38W | ND / 2.99 / ND | 2.99 | 1/9 (3.61)
E32D+S38T+P101D | ND / ND / ND | ND | 1/9 (3.55)
S25A+S28H+E32D | 1.33 / 1.16 / 1.37 | 1.29 | 3/9 (4.71)

Values reported by Engelhart et al. 2022, doi:10.1038/s41597-022-01779-4 (FLAb copy).